{"source": "paper PMC4209961", "about": "(Journal of nuclear medicine : official publication, Society …, 2013)", "test_system": "U87MG tumors", "design": "species or system athymic nude mice", "conditions": "mouse, in vivo", "data": [{"substance": "^18F-FDG", "values": [{"measurement": "tumor uptake of ^18F-FDG relative to that of ^18F-Alfatide II", "value": "2–4 fold"}]}]}
